Assay [1] concerns the target T1, ARAF^SSDD (MEK1^SASA:ARAF^SSDD-14-3-3ε dimer complex) (Homo sapiens, UniProt P10398, G300S/Y301D/Y302D).
T1 construct: ARAF^274-606, G300S, Y301/302D-14-3-3 ε with N-terminal His6 and StrepII tags; His6 (N); StrepII (N); made in house; host or cells: SF9 insect cells (baculovirus)
T1 sequence (P10398 274-606 G300S/Y301D/Y302D): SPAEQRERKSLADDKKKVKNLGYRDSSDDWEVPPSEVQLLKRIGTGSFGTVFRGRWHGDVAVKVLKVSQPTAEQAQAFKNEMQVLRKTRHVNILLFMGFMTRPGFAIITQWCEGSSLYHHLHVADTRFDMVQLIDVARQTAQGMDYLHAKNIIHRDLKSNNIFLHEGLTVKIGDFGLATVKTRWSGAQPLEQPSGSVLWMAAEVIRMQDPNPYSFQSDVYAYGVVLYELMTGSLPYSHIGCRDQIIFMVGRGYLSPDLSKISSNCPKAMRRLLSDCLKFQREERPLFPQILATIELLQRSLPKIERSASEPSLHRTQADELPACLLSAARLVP
The experiment in a line: TR-FRET kinase inhibition assay (phosphorylation of biotinylated MEK1), ARAF dimer complex. The class given is biochemical. To be noted: ARAF^SSDD IC50, 10 nM enzyme, 250 nM MEK1, 200 μM ATP, 40 min preincubation, 30 min reaction.

Assay [2] has as its target T2, CRAF^WT (MEK1:CRAF^WT:14-3-3 dimer complex) (Homo sapiens, UniProt P04049).
T2 construct: His6 (N); made in house; host or cells: insect cells (baculovirus)
The assay is described as follows: TR-FRET kinase inhibition assay (phosphorylation of biotinylated MEK1), CRAF WT dimer complex. The class given is biochemical. The following applies: four-parameter fit; 200 μM ATP.

pIC50: −log10 of the molar value. Several values for one entry are separate records, joined by “and”; a condition that tells them apart may be missing. Equal entries are not always repeated. A value given as a limit tells only on which side of the number the result lay.

Take `OCCn1cc(-c2ccc3c(c2)CC/C3=N\O)c(-c2ccncc2)n1` [GDC0879]: in assay [1], the negative-log IC50 (pIC50) was < 6.30 and 6.19.
Consider `CN(C)CCOc1ccc(-c2nc(-c3ccncc3)c(-c3ccc4c(c3)CC/C4=N\O)[nH]2)cc1` [SB590885], for which the “CRAF^WT nH (Hill slope)” value in assay [2] was −0.8.

(Values after PMC12630025, “Characterization and inhibitor sensitivity of ARAF, BRAF, and CRAF kinases [drawing 1]” (The Journal of Biological Chemistry, 2025).)
